Settings: rat, in vivo, iv
Description: The external water phase was replaced six times.
All procedures involving animals were approved by the DSO IACUC committee and performed according to the guidelines set forth in the National Institutes of Health Guide for the Care and Use of Laboratory Animals (NIH Publications NO. 85-23, revised 1996). […] Animals were sacrificed at 4 h post-injection. They were perfused with Ringer's solution, followed by 4% paraformaldehyde (pH 7.4). Following the perfusion, the brains were removed and kept in a similar fixative for 2 h. They were then kept in 0.1M phosphate buffer containing 20% sucrose overnight at 4° C. Frozen coronal sections of the cerebrum of 30 μm thickness were cut and rinsed in PBS with a cryostat and mounted on slides.

FITC
crossing of the blood-brain barrier: unable to cross the BBB

— patent US20110223202A1, “CATIONIC CORE-SHELL PEPTIDE NONOPARTICLES” (priority 2007, published 2011)
